pEC50: −log10 of the molar value.
Target: hGLP-1 receptor (Homo sapiens, UniProt P43220)
Assay: Agonist activity against GLP-1 receptor (CRE-luciferase reporter, ONE-Glo Luciferase Assay System)
Conditions: CHO-K1/CRE-luc/hGLP-1 receptor cells; 5 h incubation with compound; chemiluminescence readout

Protein sequences, listed by entry. Tags and fused reporters are not part of them. Residues count along the entry.
UniProt P43220, 24-463 limits assumed: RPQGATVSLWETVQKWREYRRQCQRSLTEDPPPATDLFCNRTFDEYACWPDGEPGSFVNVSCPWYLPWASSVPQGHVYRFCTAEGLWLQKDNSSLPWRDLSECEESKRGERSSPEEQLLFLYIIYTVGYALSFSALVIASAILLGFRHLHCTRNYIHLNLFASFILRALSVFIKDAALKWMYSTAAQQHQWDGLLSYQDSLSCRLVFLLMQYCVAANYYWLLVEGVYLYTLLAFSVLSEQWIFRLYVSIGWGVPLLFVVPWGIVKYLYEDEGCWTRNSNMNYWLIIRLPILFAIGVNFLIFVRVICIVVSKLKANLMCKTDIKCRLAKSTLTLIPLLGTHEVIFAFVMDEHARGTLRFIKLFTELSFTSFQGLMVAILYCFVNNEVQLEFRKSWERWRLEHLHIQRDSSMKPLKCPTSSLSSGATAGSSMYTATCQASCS

Compound | pEC50 | Emax [fold]
Cc1cc(-n2nc3c(c2N2C[C@@H]4COc5cc6c(cnn6C6CC6)c(F)c5N4C2=O)[C@H](C)N(C(=O)c2cc4cc5c(cc4n2[C@@]2(c4noc(=O)[nH]4)C[C@@H]2C)OCC52CCOC(C)(C)C2)CC3)cc(C)c1F (stereo partly drawn) | 10.70 | 20.23
Cc1cc(-n2nc3c(c2N2C[C@@H]4COc5c(ccc6c5cnn6C5CC5)N4C2=O)[C@H](C)N(C(=O)c2cc4cc5c(cc4n2[C@@]2(c4noc(=O)[nH]4)C[C@@H]2C)OCC52CCOC(C)(C)C2)CC3)cc(C)c1F (stereo partly drawn) | 10.70 | 
Cc1cc(-n2nc3c(c2-c2cncn(-c4ccc5c(cnn5C)c4)c2=O)[C@H](C)N(C(=O)c2cc4cc5c(cc4n2[C@@]2(c4noc(=O)[nH]4)C[C@@H]2C)OCC52CCOC(C)(C)C2)CC3)cc(C)c1F (stereo partly drawn) | 10.40 | 21.19
Cc1cc(-n2nc3c(c2N2C[C@@H]4COc5cc6c(cnn6C6CC6)c(F)c5N4C2=O)[C@H](C)N(C(=O)c2cc4cc(C5CCOC(C)(C)C5)ccn4c2C2(c4noc(=O)[nH]4)CC2)CC3)cc(C)c1F (stereo partly drawn) | 10.70 | 17.54
Cc1cc(-n2nc3c(c2-n2ccn(-c4ccc5c(cnn5C)c4F)c2=O)[C@H](C)N(C(=O)c2cc4cc5c(cc4n2[C@@]2(c4noc(=O)[nH]4)C[C@@H]2C)OCC52CCOC(C)(C)C2)CC3)cc(C)c1F (stereo partly drawn) | 11.00 | 22.02

The next lines start with the values.

pEC50 | Emax [fold] | Compound
10.70 | 19.03 | Cc1cc(-n2nc3c(c2N2CC4COc5cc6c(cnn6C)c(F)c5N4C2=O)[C@H](C)N(C(=O)c2cc4cc([C@H]5CCOC(C)(C)C5)ccc4n2[C@@]2(c4noc(=O)[nH]4)C[C@@H]2C)CC3)cc(C)c1F (stereo partly drawn)
10.52 | 20.70 | Cc1cc(-c2nn3c(c2N2C[C@@H]4COc5cc6c(cnn6C6CC6)c(F)c5N4C2=O)C(C)N(C(=O)c2cc4cc([C@H]5CCOC(C)(C)C5)ccc4n2[C@@]2(c4noc(=O)[nH]4)C[C@@H]2C)CC3)cc(C)c1F (stereo partly drawn)
10.70 | 21.12 | [2H]C([2H])([2H])n1ncc2c(F)c3c(cc21)OCC1CN(c2c4c(nn2-c2cc(C)c(F)c(C)c2)CCN(C(=O)c2cc5cc([C@H]6CCOC(C)(C)C6)ccc5n2[C@@]2(c5noc(=O)[nH]5)C[C@@H]2C)[C@H]4C)C(=O)N31 (stereo partly drawn)

Reference: EP4813984A1 (Jiangsu Hengrui Pharmaceuticals Co., Ltd., priority 2023, dated 2025)
